AlphaSeq binding of Ab-14 heavy chain variants to a spike HR2 peptide

Source: Li et al. 2023 (doi:10.1038/s41467-023-39022-2), MIT Lincoln Laboratory and A-Alpha Bio; data file from the FLAb repository.

Binding partner: SARS-CoV-2 spike HR2 peptide, sequence PDVDLGDISGINAS.

Each scFv is VH, three GGGGS repeats, VL, as in the parent Ab-14, and differs from it in the CDRs of the heavy chain only.
VH: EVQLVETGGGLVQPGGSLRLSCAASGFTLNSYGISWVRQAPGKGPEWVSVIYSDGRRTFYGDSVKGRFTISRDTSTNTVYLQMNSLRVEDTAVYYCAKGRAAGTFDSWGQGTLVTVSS
VL: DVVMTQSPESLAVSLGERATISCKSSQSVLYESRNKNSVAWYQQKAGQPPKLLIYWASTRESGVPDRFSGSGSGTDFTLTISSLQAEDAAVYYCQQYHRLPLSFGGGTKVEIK

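The parent was found by panning a naive human phage display library on the peptide. This is the validation round: designs drawn from the data on random variants, tested in the same kind of assay. Their group label is 14H_GPLM_Gen (GPLM: also part of the Gaussian process libraries; Gen: genetic algorithm; a sequence that several methods proposed may carry one label only). In AlphaSeq, yeast of one mating type display the scFv and yeast of the other type display the target. Mating (16 h, 30 °C) was followed by selection of diploids and sequencing of their barcodes. Each replicate has its own calibration line, from reference interactions of the BCL2 family. The assay was run in six technical replicates.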

Variants are written as CDR1, CDR2 and CDR3 of the heavy chain (limits as in the source). Parent: GFTLNSYGIS, VIYSDGRRTFYGDSVK, GRAAGTFDS.
Numbers give log10(Kd / nM), so 0 is 1 nM and 3 is 1 µM. Smaller is tighter.
"nd" marks a missing value. The strain was present, yet no cells mated with the target were sequenced in that replicate, which points to weak or no binding.
As a blank, each scFv also met three strains without target: over all heavy chain designs, 1% of these pairings were detected, typically at 2.08 and seldom below 0.84. The control count says in how many pairings with the empty strains this scFv gave a signal.
Of ten entries with the parent sequence, four were seen in most replicates (averages 0.34 to 2.37), three in one and three in none, so single entries are noisy.
Values of this round are not directly comparable with the first-round values of the same sequences.
The authors' rule: three or more of the six replicates give a measured affinity, fewer mean a poor binder.

With GFSLNEYGIS / VIYSDGRRTFYADWVK / GRTAGTFDS the result was 0.51, -0.01, 0.09, 0.44, 0.75, 0.64 (controls 0 of 18).
With GFSLNDYGIS / VIYSDGRRTFYGDSVK / GRTAGTFDV the result was 0.42, -0.44, -0.06, -0.33, 0.14, -0.05 (controls 0 of 18).
With GFSLNEYGIS / VIYSDGRRTFYMDSVK / GRAAGTFDS the result was 0.49, 0.84, 0.51, 0.88, 0.66, 0.94 (controls 0 of 18).
With GFSLNSYGIS / VIYSDGRRTFYVDSVK / GQAAGTFDQ the result was 1.32, nd, nd, nd, nd, 2.38 (controls 0 of 18).
With GFNLNTYGIS / VIYSDGRRTFYADSVK / GQAAGTFDS the result was 0.40, 0.54, 0.54, 0.42, 0.54, 0.98 (controls 0 of 18).
With SFSLNSYGIS / VIYSDGRRTFYADSVK / GSAAGTFDS the result was 0.77, 0.95, 0.22, nd, 1.19, nd (controls 0 of 18).
With GFTLESYGIS / VIYSDGRRTFYSDSVK / GRAAGTFDS the result was 0.68, nd, nd, -0.37, nd, 0.95 (controls 0 of 18).
With GFSLNSYGIS / VIYSDGRRTFYGDSVK / GMTAGTFDS the result was 1.28, 0.68, 1.11, 0.87, 1.67, 1.22 (controls 0 of 18).
With GFHLNSYGIS / VIYADGRRTFYGDSVK / GKAAGTFDS the result was 0.46, 0.66, 0.47, 0.44, 0.08, 0.43 (controls 0 of 18).
With GFRLNSYGIS / VIYSDGRRTFYADSVK / GQTAGTFDS the result was 1.01, 1.79, 0.18, 0.96, 0.93, 0.67 (controls 0 of 18).
With GFSLNSYGIS / VIYSDGRRTFYGDSVK / GQAAGTFDM the result was 0.70, 2.02, -0.09, nd, nd, nd (controls 0 of 18).
With GFNLNSYGIS / VIYSDGRRTFYADSVK / GQTAGTFDS the result was 0.58, 0.00, -0.67, -0.24, 0.58, 0.27 (controls 0 of 18).
With GFSLNDYGIS / VIYSDGRRTFYGDPVK / GRTAGTFDS the result was 1.02, 0.55, 0.00, 0.81, 0.51, 0.69 (controls 1 of 18).
With GFTLNEYGIS / VIYSDGRRTFYGDSVK / GQEAGTFDT the result was -0.03, -0.25, 0.15, -0.23, 0.08, 0.29 (controls 0 of 18).
With GFTLESYGIS / VIYSDGRRTFYADSVK / GRQAGTFDS the result was nd, 3.10, 1.03, 2.02, 1.45, 1.54 (controls 1 of 18).
With GFSLNSYGIS / VIYSDGRRTFYGDSVK / GSEAGTFDS the result was -0.37, 0.47, nd, -0.28, 0.61, -0.07 (controls 0 of 18).
With GFSLNTYGIS / VIYSDGRRTFYADSVK / GQAAGTFDS the result was -0.66, -0.40, 0.99, -0.49, -0.44, -0.32 (controls 0 of 18).
With GFSLNSYGIS / VIYSDGRRTFYGDSVK / GQAAGTFDL the result was nd, nd, 1.78, nd, 2.07, nd (controls 0 of 18).
With GFSLNEYGIS / VIYSDGRRTFYGDSVK / GKAAGTFDG the result was 0.64, 0.06, 0.10, 0.09, 0.47, 1.13 (controls 0 of 18).
With GFWLNEYGIS / VIYSDGRRTFYSDSVK / GRTAGTFDS the result was 0.46, 0.26, 0.82, -0.08, 0.39, 0.97 (controls 0 of 18).
With GFSLNEYGIS / VIYSDGRRTFYGDSVK / GRAAGTFDE the result was 0.95, 0.65, 2.28, 0.55, 1.01, 1.29 (controls 0 of 18).
With GFSLNEYGIS / VIYSDGRRTFYGDSVK / GRTAGTFES the result was -0.37, 0.10, -0.08, -0.38, 0.27, -0.05 (controls 0 of 18).
With GFHLNSYGIS / VIYSDGRRTFYADSVK / GQEAGTFDS the result was 0.07, 0.07, 0.29, 0.09, 0.44, -0.36 (controls 0 of 18).
With GFTLNSYGIS / VIYSDGRRTFYGDSVK / GQVAGTFDS the result was 1.77, 0.40, 1.57, 1.44, 1.38, 1.17 (controls 0 of 18).
With GFTLNSYGIS / VIYSDGRRTFYIDSVK / GKAAGTFDS the result was 0.68, nd, nd, nd, 0.77, 1.66 (controls 1 of 18).
With GFSLNNYGIS / VIYSDGRRTFYSDSVK / GKAAGTFDS the result was 1.70, -0.03, 0.31, -0.27, -0.10, 0.20 (controls 0 of 18).
With GFSLNSYGIS / VIYSDGRRTFYKDSVK / GRNAGTFDS the result was 1.00, 1.00, 1.10, 1.75, 0.53, 1.45 (controls 0 of 18).
With GFTLNSYGIS / VIYSDGRRTFYQDSVK / GEAAGTFDS the result was nd, 1.73, 2.12, 1.90, 1.31, 1.38 (controls 0 of 18).
With GFTLNSYGIS / VIYSDGVRTFYIDSVK / GNAAGTFDS the result was 0.27, 0.51, -0.84, 0.71, -0.22, 0.57 (controls 0 of 18).
With GFTLNSYGIS / VIYSDGRRTFYGDSVK / GSEAGTFDT the result was 0.09, -0.11, 0.35, 0.13, 0.16, 0.25 (controls 0 of 18).
With GFHLNEYGIS / VIYSDGRRTFYGDSVK / GRTAGTFDS the result was -0.14, -0.64, -0.35, 0.05, -0.08, 0.13 (controls 0 of 18).
With GFSLNSYGIS / VIYADGRRTFYGDSVK / GRVAGTFDS the result was -0.48, -0.46, -0.35, -0.58, -0.72, -0.53 (controls 0 of 18).
With GFTLNSYGIS / VIYADGRRTFYADSVK / GEAAGTFDS the result was -0.39, -0.33, -0.45, -0.46, -0.27, -0.02 (controls 0 of 18).
With GFELNSYGIS / VIYSDGRRTFYADSVK / GNAAGTFDS the result was 0.57, 0.74, 0.43, 0.43, -0.17, 1.43 (controls 0 of 18).
With GFGLNSYGIS / VIYSDGRRTFYADSVK / GNAAGTFDS the result was 0.94, 0.92, 1.30, 0.86, 0.94, 1.15 (controls 0 of 18).
With GFSLNEYGIS / VIYSDGRRTFYADSVK / GRAAGTFDK the result was 0.33, -0.76, -0.50, -0.71, -0.60, -0.76 (controls 0 of 18).
With GFSLNEYGIS / VIYSDGRRTFYGDSVK / GSAAGTFDN the result was 0.18, 1.27, nd, -0.55, -0.01, 0.94 (controls 0 of 18).
With GFSLNNYGIS / VIYSDGRRTFYTDSVK / GRAAGTFDS the result was 0.51, 0.50, 0.26, 0.61, 0.34, 0.73 (controls 0 of 18).
With GFSLNSYGIS / VIYSDGRRTFYGDSVK / GKTAGTFDT the result was 0.21, 0.04, -0.08, 0.44, 0.07, 0.37 (controls 0 of 18).
With GFGLNEYGIS / VIYSDGRRTFYGDSVK / GQAAGTFDK the result was 0.48, 0.54, 0.66, -0.03, 1.14, 0.41 (controls 2 of 18).
With GFLLNDYGIS / VIYSDGRRTFYGDSVK / GRTAGTFDS the result was 0.65, 0.54, 0.10, 0.24, 0.42, 0.63 (controls 0 of 18).
With GFDLNSYGIS / VIYSDGRRTFYADSVK / GKAAGTFDS the result was nd, nd, nd, 1.22, 0.70, 2.19 (controls 0 of 18).
With GFSLESYGIS / VIYSDGRRTFYADNVK / GRAAGTFDS the result was 0.85, 0.42, 0.58, 0.85, 0.55, 0.63 (controls 0 of 18).
With WFSLNDYGIS / VIYSDGRRTFYGDSVK / GRTAGTFDS the result was 0.48, 0.27, 0.06, -0.11, -0.08, 0.42 (controls 3 of 18).
With GFQLNSYGIS / VIYSDGRRTFYSDSVK / GQAAGTFDS the result was 0.58, 0.67, 0.97, 1.04, 0.62, 0.69 (controls 0 of 18).
With GFELNSYGIS / VIYADGRRTFYGDSVK / GQAAGTFDS the result was 0.10, -0.19, -0.33, -0.78, -0.07, -0.18 (controls 2 of 18).
With GFVLNEYGIS / VIYSDGRRTFYGDSVK / GQAAGTFDK the result was 0.86, 1.32, 0.84, 1.47, 1.73, 0.55 (controls 0 of 18).
With GFSLNSYGIS / VIYSDGRRTEYGDSVK / GRTAGTFDS the result was 0.22, 0.20, 0.38, 0.01, 0.30, 0.48 (controls 0 of 18).
With GFDLNSYGIS / VIYSDGRRTFYADSVK / GWTAGTFDS the result was -0.33, -0.83, -0.73, -0.68, -0.51, -0.47 (controls 0 of 18).
With GFSLNEYGIS / VIYSDGRRTFYADSVK / GRTAGTFDS the result was -0.13, 0.07, -0.32, -0.47, -0.46, 0.44 (controls 1 of 18).
With GFSLNEYGIS / VIYSDGRRTFYHDSVK / GRNAGTFDS the result was nd, -0.02, -0.01, -0.29, -0.04, 0.03 (controls 0 of 18).

Excerpt, the final 5 entries:

{"CDR-H1": "GFVLNEYGIS", "CDR-H2": "VIYSDGRRTFYGDSVK", "CDR-H3": "GQAAGTFDK", "log10 Kd (nM) by replicate": "0.86, 1.32, 0.84, 1.47, 1.73, 0.55", "control signals": "0 of 18"}
{"CDR-H1": "GFSLNSYGIS", "CDR-H2": "VIYSDGRRTEYGDSVK", "CDR-H3": "GRTAGTFDS", "log10 Kd (nM) by replicate": "0.22, 0.20, 0.38, 0.01, 0.30, 0.48", "control signals": "0 of 18"}
{"CDR-H1": "GFDLNSYGIS", "CDR-H2": "VIYSDGRRTFYADSVK", "CDR-H3": "GWTAGTFDS", "log10 Kd (nM) by replicate": "-0.33, -0.83, -0.73, -0.68, -0.51, -0.47", "control signals": "0 of 18"}
{"CDR-H1": "GFSLNEYGIS", "CDR-H2": "VIYSDGRRTFYADSVK", "CDR-H3": "GRTAGTFDS", "log10 Kd (nM) by replicate": "-0.13, 0.07, -0.32, -0.47, -0.46, 0.44", "control signals": "1 of 18"}
{"CDR-H1": "GFSLNEYGIS", "CDR-H2": "VIYSDGRRTFYHDSVK", "CDR-H3": "GRNAGTFDS", "log10 Kd (nM) by replicate": "nd, -0.02, -0.01, -0.29, -0.04, 0.03", "control signals": "0 of 18"}